The results in this text go back to patent US7488745B2, “Compounds for the treatment of inflammatory disorders” (Schering Corporation, priority 2004, dated 2009).

Chains of the proteins cited; added tags and fusions are not shown. Residues count along the entry.
UniProt P78536, 215-477 S266A/N452Q limits assumed: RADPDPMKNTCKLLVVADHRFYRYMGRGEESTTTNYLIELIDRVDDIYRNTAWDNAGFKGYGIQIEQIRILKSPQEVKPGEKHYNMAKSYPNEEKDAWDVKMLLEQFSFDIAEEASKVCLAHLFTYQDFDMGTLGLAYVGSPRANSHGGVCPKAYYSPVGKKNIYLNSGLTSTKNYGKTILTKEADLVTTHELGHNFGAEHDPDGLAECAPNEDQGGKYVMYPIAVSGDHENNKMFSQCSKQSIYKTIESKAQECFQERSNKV

The first assay addresses purified catalytic domain of recombinant human TACE (rhTACEc) (Homo sapiens, UniProt P78536, N452Q/S266A). The experiment in a line: TACE kinetic assay: cleavage of internally quenched peptide substrate SPDL-3 (fluorescence). As to conditions: Ki (nM), Specific TACE inhibitory activity (Ki values).
The Ki is a dissociation constant, usually derived from enzyme kinetics or from competition with a known ligand. Consider `COc1ccc2c(c1)C(=O)N(C[C@@]1(c3cc4ncccc4o3)NC(=O)NC1=O)C2` [Compound 9273], for which the inhibition constant (Ki) was 1.84 nM.

The assay is the same for the next values; noted with them: Ki (nM), TABLE 6000; Ki printed as class symbols A-D.
Take `COc1ccc2c(c1)C(=O)N(C[C@@]1(c3cnn(-c4ccc(F)cc4)c3)NC(=O)NC1=O)C2` [Compound 9003F]: the Ki is under 10 nM.

Take `COc1ccc2c(c1)C(=O)N(C[C@@]1(c3cc(-c4cn(C)c5ccccc45)no3)NC(=O)NC1=O)C2` [Compound 9254]: the Ki was under 10 nM.

As to `COc1ccc2c(c1)C(=O)N(C[C@@]1(c3csc(C)n3)NC(=O)NC1=O)C2` [Compound 9205], the inhibition constant Ki was under 10 nM.

For `COc1ccc2c(c1)C(=O)N(C[C@@]1(c3ccc(-c4cn(C)nc4C#N)cc3)NC(=O)NC1=O)C2` [Compound 9717], the inhibition constant Ki was under 10 nM.

Turning to `COc1ccc2c(c1)C(=O)N(C[C@@]1(c3ccc(-c4ccc5nccn5c4)cc3)NC(=O)NC1=O)C2` [Compound 9703], the inhibition constant Ki was under 10 nM.

Regarding `COc1ccc2c(c1)C(=O)N(C[C@@]1(c3cc4ncccc4o3)NC(=O)NC1=O)C2` [Compound 9273], the Ki was under 10 nM.

Regarding `COc1ccc2c(c1)C(=O)N(C[C@@]1(c3cnn(-c4cccnc4)n3)NC(=O)NC1=O)C2` [Compound 9270], the inhibitory constant (Ki) is under 10 nM.

Still in this assay, the particulars now being: Ki (nM), TACE inhibitory activity, class letters.
On to `COc1ccc2c(c1)CN(CC1(C3CCNCC3)NC(=O)NC1=O)C2=O` (stereo not shown) [Compound 276], for which the Ki fell in the range of 100 to 1000 nM.

In the case of `O=C1NC(=O)[C@@](CN2Cc3ccc(F)cc3C2=O)(c2cc3ccccc3o2)N1` [Compound 179], the inhibition constant Ki was over 1000 nM.

For the compound `O=C1NC(=O)[C@](CN2Cc3ccc(N4CCOCC4)cc3C2=O)(c2ccc(N3CCOCC3)cc2)N1` [Compound 140], the inhibition constant Ki is 100 to 1000 nM.

On to `O=C1NC(=O)C(CN2Cc3cc(O)ccc3C2=O)(c2ccccc2)N1` (stereo not shown) [Compound 188], for which the Ki is under 10 nM.

For `Cc1cscc1-c1ccc([C@]2(CN3Cc4ccc(F)cc4C3=O)NC(=O)NC2=O)cc1` [Compound 156], the inhibition constant Ki was under 10 nM.

As to `COC(=O)COc1ccc2c(c1)CN(CC1(c3ccc(Br)cc3)NC(=O)NC1=O)C2=O` (stereo not shown) [Compound 226], the Ki is under 10 nM.

For the compound `O=C1NC(=O)[C@@](CN2Cc3ccc(F)cc3C2=O)(c2ccc(-c3cccc(Cl)c3)cc2)N1` [Compound 128], the Ki was under 10 nM.

Take `COc1ccc2c(c1)CN(CC1(c3ccc(-c4nccs4)cc3)NC(=O)NC1=O)C2=O` (stereo not shown) [Compound 28]: the inhibition constant Ki is under 10 nM.

The assay is the same for the next values; noted with them: Ki Rating, TACE inhibitory activity, Table 3000.
`COc1ccc2c(c1)C(=O)N(C[C@@]1(c3ccc(-c4nc5ccccc5s4)cc3)NC(=O)NC1=O)C2` [Compound 4021]: the Ki is under 10 nM.

Take `COc1ccc2c(c1)C(=O)N(C[C@@]1(c3ccc(-c4c(C)n[nH]c4C)cc3)NC(=O)NC1=O)C2` [Compound 3015]: the Ki is under 10 nM.

Take `COc1ccc2c(c1)C(=O)N(CC1(c3cnn(C(C)C)c3)NC(=O)NC1=O)C2` (stereo not shown) [Compound 2023C]: the Ki is under 10 nM.

Take `CC(C)(C)CCOc1ccc2c(c1)CN(C[C@@]1(c3ccc(F)cc3)NC(=O)NC1=O)C2=O` [Compound 4008]: the inhibitory constant (Ki) was in the range of 10 to 100 nM.

On to `O=C1NC(=O)[C@](CN2Cc3ccc(O)cc3C2=O)(c2ccc(-c3cnn(CC4CC4)c3)cc2)N1` [Compound 5005], for which the Ki is under 10 nM.

With `O=C1NC(=O)[C@](CN2Cc3ccc(F)cc3C2=O)(c2ccc(-c3cc(C(F)(F)F)cc4[nH]cnc34)cc2)N1` [Compound 3006], the inhibitory constant (Ki) is under 10 nM.

As to `COc1ccc2c(c1)C(=O)N(CC1(c3nccn3C)NC(=O)NC1=O)C2` (stereo not shown) [Compound 2025C], the Ki is under 10 nM.

As to `COc1ccc2c(c1)CN(CC1(c3ccc(O)cc3)NC(=O)NC1=O)C2=O` (stereo not shown) [Compound 5016], the inhibition constant (Ki) fell in the range of 10 to 100 nM.

`COc1ccc2c(c1)C(=O)N(CC1(c3cc4ccccc4s3)NC(=O)NC1=O)C2` (stereo not shown) [Compound 2028]: the Ki is under 10 nM.

With `CC#CCOc1ccc2c(c1)C(=O)N(C[C@@]1(c3ccc(-c4cnn(CC(C)C)c4)cc3)NC(=O)NC1=O)C2` [Compound 6019], the Ki is under 10 nM.

For the compound `COc1ccc2c(c1)C(=O)N(C[C@@]1(c3ccc(-c4cc(C)c5c(cnn5CC5CC5)c4)cc3)NC(=O)NC1=O)C2` [Compound 7014], the inhibitory constant (Ki) lay within 10 to 100 nM.

With `Cn1ncc2cc(-c3ccc([C@]4(CN5Cc6ccc(OC(F)F)cc6C5=O)NC(=O)NC4=O)cc3)ccc21` [Compound 7026], the inhibition constant (Ki) was under 10 nM.
